Test results taken from PubChem BioAssay AID662 (National Center for Advancing Translational Sciences (NCATS), 2007).
The entries are a selection whose mix differs from that of the whole data set. Results filed as inconclusive are left out. Activity calls are given as the source filed them. Calls come from the whole dose curve; as a rule, active = well fitted activation curve with a large enough effect in the signal ratio, with a control signal flat (not every such curve was filed as active); inconclusive = small, poorly fitted or top-dose-only effect, or effect the other way, or a change in a side signal; inactive = flat fitted curve, though single readings scatter; the % refers to the signal ratio.

Assay: Cell signaling CRE-BLA (Fsk stim); note: % of control where 0% means no effect
Conditions: CHO CRE-bla reporter (cAMP response element driving beta-lactamase), forskolin EC10, beta-lactamase ratio; at 38.2 µM unless noted
From the text: NIH Molecular Libraries Screening Centers Network [MLSCN]
NIH Chemical Genomics Center [NCGC]
Assay Provider: Marshall W. Nirenberg, U.S. National heart lung & blood institute
Memories persist for different lengths of time, from seconds or minutes to a lifetime. There are two kinds of memory: short-term memory (STM) and long-term memory (LTM). STM lasts for minutes to hours, which maybe mediated by modifications of molecules involved in synaptic functions. LTM lasts for days or longer, and may be due to the formation of new synapses or restructuring of existing synapses. LTM, but not STM, requires gene transcription and synthesis of proteins. CREB (cyclic-AMP Responsive Element Binding Protein) is one of the candidates plays an important role for enhancement of some types of LTM. CREB, a family of transcription factors, regulates the transcription of genes containing cAMP Responsive Elements (CRE). CRE is a nucleotide sequence often found in the promoter regions of genes that are binding sites for CREB.
Using a beta-lactamase reporter-gene under control of cAMP responsive element, a cell-based assay [CellSensor(TM) CRE-bla CHO developed by Invitrogen Corp.] was used to measure forskolin-induced signaling. Library compounds were measured for their ability to modulate positively or negatively the action of EC10 NKH 477, a water soluble forskolin, on reporter gene activity. Compounds were screened in a titration series in 1536-well format. Positive and negative modulators were identified based on the AC50 values derived from the screening data.
NCGC Assay Protocol Summary
2000 cells/5uL in Opti-MEM medium containing 0.5% dialyzed FBS, 0.1 mM NEAA, 1 mM sodium pyruvate and 10 mM HEPES was dispensed into 1536-well plates and cells were cultured at 37 degrees Celsius overnight. […] And then the plates were incubated at 37 degrees Celsius for 3 hours. 1 uL of CCF4-dye mixture was added to each well. After incubated at room temperature for 2 hours the plates were measured on an EnVision plate reader at Excitation 405nm, Emission1=460nm and Emission 2=530nm. The %Activity was determined from the ratio of 460nm/530nm.
Keywords: NIH Roadmap, MLSCN, MLSMR, qHTS, NCGC, CRE, beta-lactamase reporter-gene assay.

| Compound | activity change, negative = inhibition |
| --- | --- |
| O=C(O)C1(Nc2ccccc2)CCN(Cc2ccccc2)CC1 | inactive: 5.43% [at 7.6 µM] |
| CCC(CO)(C(=O)OC1CN2CCC1CC2)c1ccccc1 (stereo not drawn) | inactive: -2.58% |
| Fc1ccccc1NC1CCN(Cc2ccccc2)CC1 | inactive: -7.19% |
| ClCCOP(OCCCl)OCCCl | inactive: -9.37% |
| N/C(=N\O)c1c(N)no[n+]1[O-] | inactive: 9.23% |
| CCOP(=O)(Cl)Cl | inactive: -9.87% |
| NC1CCCCC1.NP(=O)(O)N(CCCl)CCCl | inactive: 2.87% [at 7.6 µM] |
| N#CC1(Nc2ccccc2)CCN(CCc2ccccc2)CC1 | inactive: 15.9% |
